# Measurements reported in article PMC3483245, “Optimization of a direct spectrophotometric method to investigate the kinetics and inhibition of sialidases” (BMC Biochemistry, 2012).
# The chains behind the UniProt entries cited, without tags or fusion partners. Residues count along the entry.
# UniProt P62576, 54-1035: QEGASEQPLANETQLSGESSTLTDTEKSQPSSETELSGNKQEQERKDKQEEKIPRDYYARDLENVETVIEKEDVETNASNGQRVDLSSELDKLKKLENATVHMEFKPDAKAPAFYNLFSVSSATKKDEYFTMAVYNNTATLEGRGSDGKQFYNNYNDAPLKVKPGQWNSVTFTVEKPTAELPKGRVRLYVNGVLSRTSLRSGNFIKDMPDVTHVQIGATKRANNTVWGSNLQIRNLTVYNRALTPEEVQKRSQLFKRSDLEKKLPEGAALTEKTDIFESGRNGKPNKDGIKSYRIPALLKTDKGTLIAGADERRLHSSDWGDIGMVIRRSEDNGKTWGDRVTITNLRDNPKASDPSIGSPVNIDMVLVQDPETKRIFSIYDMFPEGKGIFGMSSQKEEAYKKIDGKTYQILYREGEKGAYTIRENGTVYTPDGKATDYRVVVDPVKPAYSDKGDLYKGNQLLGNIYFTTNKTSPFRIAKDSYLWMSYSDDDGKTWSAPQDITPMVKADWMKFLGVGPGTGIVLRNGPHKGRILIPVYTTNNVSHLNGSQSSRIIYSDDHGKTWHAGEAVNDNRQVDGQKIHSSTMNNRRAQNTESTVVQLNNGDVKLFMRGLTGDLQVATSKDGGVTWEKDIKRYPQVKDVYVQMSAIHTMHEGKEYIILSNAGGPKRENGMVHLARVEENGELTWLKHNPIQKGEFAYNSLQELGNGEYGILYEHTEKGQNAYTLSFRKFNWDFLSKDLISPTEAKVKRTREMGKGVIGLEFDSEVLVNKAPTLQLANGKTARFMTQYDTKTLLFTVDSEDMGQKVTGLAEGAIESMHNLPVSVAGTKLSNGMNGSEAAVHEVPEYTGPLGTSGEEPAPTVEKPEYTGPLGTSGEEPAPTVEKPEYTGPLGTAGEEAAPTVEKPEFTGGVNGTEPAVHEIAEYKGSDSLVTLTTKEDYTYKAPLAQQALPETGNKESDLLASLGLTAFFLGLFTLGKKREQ
# Biological target: NanA (Streptococcus pneumoniae, UniProt P62576)
# Assay: biochemical
smiles,measurement,value
"CC(=O)N[C@H]1[C@H]([C@H](O)[C@H](O)CO)OC(C(=O)O)=C[C@@H]1O [Neu5Ac2en, 2-deoxy-2,3-didehydro-N-acetylneuraminic acid]",pKi,5.80

# pKi: −log10 of the molar value.
